# Assay results reported in PubChem BioAssay AID1321 (The Scripps Research Institute Molecular Screening Center, 2008).
# The chains behind the UniProt entries cited, without tags or fusion partners.
# UniProt P30291, whole entry K328M: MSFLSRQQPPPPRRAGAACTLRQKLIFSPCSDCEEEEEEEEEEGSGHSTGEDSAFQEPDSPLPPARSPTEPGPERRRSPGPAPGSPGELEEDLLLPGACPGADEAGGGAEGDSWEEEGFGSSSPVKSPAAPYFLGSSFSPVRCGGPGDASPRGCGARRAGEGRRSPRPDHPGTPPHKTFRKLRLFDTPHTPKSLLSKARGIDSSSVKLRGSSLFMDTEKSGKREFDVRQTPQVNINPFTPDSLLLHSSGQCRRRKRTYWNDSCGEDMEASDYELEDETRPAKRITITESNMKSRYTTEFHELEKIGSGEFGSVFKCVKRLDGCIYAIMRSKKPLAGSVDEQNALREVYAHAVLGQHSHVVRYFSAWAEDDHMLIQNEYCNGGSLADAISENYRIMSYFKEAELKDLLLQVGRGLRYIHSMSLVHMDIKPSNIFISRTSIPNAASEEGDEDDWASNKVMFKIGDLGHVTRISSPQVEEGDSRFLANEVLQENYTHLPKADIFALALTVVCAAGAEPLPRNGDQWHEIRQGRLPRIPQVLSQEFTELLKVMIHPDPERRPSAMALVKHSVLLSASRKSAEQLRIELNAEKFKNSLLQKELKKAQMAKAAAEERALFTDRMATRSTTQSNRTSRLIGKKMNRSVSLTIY
# Only a part is listed here, and it is no random draw. Active and inactive are the calls of the source.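 The calls were made as follows: active = activation above the mean of all tested compounds plus 3 SD, set per screening run (cut at about 8.8% in these data); inactive = the rest.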
# Biological target: Wee1-like protein kinase (Homo sapiens) (UniProt P30291)
# Experiment: Wee1 degradation inhibitors, primary screen, cell-based, HeLa, Wee1K328M-luciferase, luminescence (AID 1321);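 also: cells exposed to compound for 20 h before luminescence read; 0% = DMSO alone and 100% = MG132 at 30 µM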
# Details: HeLa Luc-Wee1K328M stability, at 5 µM, active compounds read high, 100% = proteasome inhibitor MG132 effect
row,Structure (SMILES),reporter increase
1,O=[N+]([O-])c1cc([N+](=O)[O-])c(-n2nnc3ccccc32)c([N+](=O)[O-])c1,inactive: -4%
2,Cc1nc2ccc3ccccc3c2s1.O=[N+]([O-])c1cc([N+](=O)[O-])c(O)c([N+](=O)[O-])c1,inactive: -2.34%
3,CCOC(=O)C(CC)C1=NC(C)(C)Cc2ccccc21.O=[N+]([O-])c1cc([N+](=O)[O-])c(O)c([N+](=O)[O-])c1 (stereo not given),inactive: -0.02%
4,O=[N+]([O-])c1cc([N+](=O)[O-])c(Nc2nnnn2CCO)c([N+](=O)[O-])c1,inactive: 0.19%
5,CCCOc1ccc(NP(C)(=O)Oc2ccc(Cl)cc2)cc1 (stereo not given),inactive: -1.56%
6,CP(=O)(Nc1ccc(SC(F)(F)F)cc1)Oc1ccccc1 (stereo not given),inactive: -2.8%
7,COc1ccccc1OP(C)(=O)Nc1c(C)cccc1C (stereo not given),inactive: 2.69%
8,CN1CCCCC1COC(=O)C1(O)c2ccccc2CCc2ccccc21 (stereo not given),inactive: 1.11%
9,O=C(O)c1cccc(Nc2c([N+](=O)[O-])cc([N+](=O)[O-])cc2[N+](=O)[O-])c1,inactive: -1.59%
10,CC1=NCCc2c1[nH]c1ccccc21.O=[N+]([O-])c1cc([N+](=O)[O-])c(O)c([N+](=O)[O-])c1,inactive: -1.91%
11,CCOC(=O)c1ccc(NP(C)(=O)Oc2cc(C)cc(C)c2)cc1 (stereo not given),inactive: -1.41%
12,Cc1cc(C)cc(OP(C)(=O)Nc2ccc(C)cc2C)c1 (stereo not given),inactive: -1.67%
13,COc1ccccc1OP(C)(=O)Nc1cccc(Br)c1 (stereo not given),inactive: 0.15%
14,Cc1ccc(C)c(NP(C)(=O)Oc2ccccc2)c1 (stereo not given),inactive: -1.88%
15,Cc1cc(C)cc(OP(C)(=O)Nc2ccccn2)c1 (stereo not given),inactive: -0.93%
16,CP(=O)(Nc1cccc(Br)c1)Oc1ccccc1 (stereo not given),inactive: 1.64%
17,CCN(CC)CCCOC(=O)C(O)(c1ccccc1)c1ccccc1,inactive: -0.56%
18,O=[N+]([O-])c1ccc2c(c1)C=Nc1ccccc1O2,inactive: -1.08%
19,Cc1cccc(C)c1OP(C)(N)=O (stereo not given),inactive: 0.18%
20,CC(C)(C)c1ccc(OP(C)(=O)Nc2ccc(SC(F)(F)F)cc2)cc1 (stereo not given),inactive: 4.46%
21,Cc1cc(C)cc(OP(C)(N)=O)c1 (stereo not given),inactive: -0.19%
22,COc1ccc(OP(C)(=O)Nc2cccc(F)c2)cc1 (stereo not given),inactive: 0.36%
23,COc1ccccc1OP(C)(=O)Nc1cc(Cl)ccc1C (stereo not given),inactive: -2.51%
24,Cc1ccc(NP(C)(=O)Oc2ccccc2)c(C)c1 (stereo not given),inactive: 0.27%
25,COc1ccccc1OP(C)(=O)Nc1ccc(C)cc1 (stereo not given),inactive: -2.35%
